Compound activity: PubChem BioAssay, several laboratories
DSG3 Ab inh: inhibitors of pemphigus antibody binding to DSG3, primary screen, biochemical, bead-based, flow cytometry, scFv-GFP; Desmoglein-3 (Homo sapiens), P32926; DSG3-coupled beads, scFv-anti-DSG3-GFP binding; active compounds read low; binding (percent of control), % at 10 µM; 0.48% of 310,000 active;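 active means binding more than 3 SD below its plate's average and above zero; inconclusive means below that plate limit but binding exactly zero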;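 further: hits lower antibody fragment binding to DSG3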
TbMetRS inhib: T. brucei MetRS inhibitors, primary screen, biochemical, luminescence; methionyl-tRNA synthetase (Trypanosoma brucei brucei); purified T. brucei MetRS, ATP depletion, Kinase-Glo luminescence; inhibition, % at 11.9 µM; 0.4% of 360,000 active;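 active means inhibition above a per-plate cutoff of the control wells' mean inhibition plus 3 SD, cut at about 5.5% in these data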
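assay system = parasite MetRS enzyme | timing = 15 min preincubation, 2 h reaction, all 25 °C | evaluation = percent inhibition relative to median high and low control wells | medium = HEPES buffer containing pyrophosphatase, BSA, spermine, DTT | compound = single dose, 11.9 µM final nominal, 0.9% final DMSO | detection = Kinase-Glo luminescence, ATP depletion format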
Rce1 inh: yeast Rce1p protease inhibitors, primary screen, biochemical, fluorescence, cell-free homogeneous; CAAX prenyl protease 2 (Saccharomyces cerevisiae (strain ATCC 204508 / S288c)), Q03530; yeast membranes, quenched prenylated peptide cleavage fluorescence; calls only; 0.27% of 290,000 active; AID 2563, 2010;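 active means fall in fluorescence gain of 50% or more versus controls, with final raw signal at or below 3038400; inconclusive means same 50% fall but final raw signal above 3038400; inactive means fall in fluorescence gain under 50%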
UUG fidelity: modulators of yeast start codon fidelity, primary screen, whole organism, S. cerevisiae, single point, plate reader | activity score, % at 18.7 µM | 350,000 tested, 0.13% active | S. cerevisiae UUG-firefly luciferase reporter, luminescence/redox ratio;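 active means replicate mean at a twofold rise or more, about +100% in these data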;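 further: firefly luciferase made from a UUG start codon reports start codon fidelity; reporter light over untreated wells divided by growth signal over untreated wells; some hits fall short of that in this replicate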
Arrestin-AP2 inh: inhibitors of beta-arrestin/AP2 binding, primary screen, biochemical, GPCR trafficking, flow cytometry; inhibition, % at 10 µM; AID 504490, 2011; 0.31% of 340,000 active; FITC-arrestin peptide / GST-AP2 beads; AP2 beta2 appendage carries R879A mutation;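 active means inhibition above a set limit, near 3 SD of compounds lacking own fluorescence, cut at about 54% in these data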
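Assay system: GST-AP2 R879A bound to glutathione beads, E. coli-expressed; Medium: PBS with 0.05% Tween 20 and 0.1% BSA; Also added: fluorescein-tagged arrestin peptide at 50 nM final; Timing: 12 min plus 1 h, RT; Measured by: flow cytometry, FL1 (488/535 nm); Evaluation: percent drop in bead-associated FITC signal.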
Arr-AP2 CP1: inhibitors of arrestin peptide binding to AP2, confirmation, biochemical, cherry pick 1, flow cytometry beads; GST-AP2 beads, FITC arrestin peptide binding; GST-fused beta2-adaptin appendage, R879A mutant; AID 504908, 2011; 2% of 1,300 active; inhibition, % at 10 µM; shares compounds with Arrestin-AP2 inh;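 active means inhibition above a set limit, roughly 3 SD of non-fluorescent compound noise, cut at about 38% in these data; inactive means inhibition at or below that limit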;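 further: loss of bead fluorescence from 50 nM FITC arrestin peptide bound to appendage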
GST GSH counter: GST-fluorescein capture on glutathione beads, confirmation, artefact control for arrestin-AP2 inhibitor project, biochemical, cherry pick 1, flow cytometry | GST-fluorescein binding to GSH beads, fluorescence, counter-screen | 2% of 1,300 active | inhibition, % at 10 µM | shares compounds with Arrestin-AP2 inh;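 active means inhibition above 50%, about 3 SD of the inhibition seen with non-fluorescent compounds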;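 further: fluorescein maleimide labelled GST captured on 4 micron glutathione beads; higher means more loss of bead fluorescence from quenching or blocked binding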
Each line names hits and unclear results; the compound was inactive in the other large screens (follow-up assays come after a bar, where they were run). In the library only some 1.2% were active in any assay of this set; here they are far more common.

CCOC(=O)C1=C(COC(=O)COc2ccccc2C(C)C)NC(=O)NC1C (stereo not given)	Arrestin-AP2 inh 61 (no result: Rce1 inh) | Arr-AP2 CP1 inactive | GST GSH counter inactive
COc1ccc(NC(=O)Nc2cccc3c2O[C@@H](CN(C)C(=O)Nc2c(C)noc2C)[C@H](C)CN([C@@H](C)CO)C3=O)cc1	none (no result: DSG3 Ab inh, TbMetRS inhib, Rce1 inh, Arrestin-AP2 inh)
N#Cc1cc(C(=O)c2ccccc2OCC(=O)Nc2ccccc2)cn(C2CCCCC2)c1=O	Arrestin-AP2 inh 108 (no result: UUG fidelity) | Arr-AP2 CP1 72 | GST GSH counter 191
CCCCNC(=O)COc1ccccc1C(=O)c1cc(C#N)c(=O)n(CCOC)c1	none
O=C(C[C@H]1CC[C@@H](NS(=O)(=O)c2ccccc2)[C@H](CO)O1)NCc1ccccc1F	none (no result: DSG3 Ab inh, TbMetRS inhib, Rce1 inh, Arrestin-AP2 inh)
CCCCN1C(=O)/C(=C2/Sc3ccc(OC)cc3N2CC)SC1=S	none
CCCCOC(=O)CCCN1C(=O)/C(=C2\SC(=S)N(CCCC(=O)OCCCC)C2=O)SC1=S	Arrestin-AP2 inh 67 | Arr-AP2 CP1 inactive | GST GSH counter inactive
COc1c(Cl)cc(C(=O)NN)cc1Cl	none (no result: UUG fidelity)
NNC(=O)c1cc(O)c(O)c(O)c1	none | Arr-AP2 CP1 inactive | GST GSH counter inactive
COCC#Cc1cnc2c(c1)C(=O)N([C@H](C)CO)C[C@@H](C)[C@@H](CN(C)C(=O)c1ccc3c(c1)OCO3)O2	none (no result: DSG3 Ab inh, TbMetRS inhib, Rce1 inh, Arrestin-AP2 inh)
Cc1cc2nc3ccc(N(C)C)cc3nc2cc1N	Arrestin-AP2 inh 64 (no result: DSG3 Ab inh, UUG fidelity) | Arr-AP2 CP1 44 | GST GSH counter inactive
CCCCNC(=O)Cn1nc([N+](=O)[O-])c([N+](=O)[O-])c1C	Arrestin-AP2 inh 69 (no result: UUG fidelity) | Arr-AP2 CP1 inactive | GST GSH counter inactive
C[C@H]1CN([C@@H](C)CO)C(=O)Cc2cc(NC(=O)Nc3cccc4ccccc34)ccc2O[C@@H]1CN(C)C(=O)Nc1ccc(F)cc1	none (no result: DSG3 Ab inh, TbMetRS inhib, Rce1 inh, Arrestin-AP2 inh)
Cc1c(C(=O)c2ccc(F)cc2F)c2ccccn2c1CCC#N	Arrestin-AP2 inh 62 | Arr-AP2 CP1 inactive | GST GSH counter inactive
CCN(CC)C(=O)CSc1nnc2nnc3cc(C)ccc3n12	Arrestin-AP2 inh 57 | Arr-AP2 CP1 inactive | GST GSH counter inactive
CCN(CC)C(=O)CSc1nnc2nnc3cc(Cl)ccc3n12	none
Cc1ccnc2nc(C(=O)OCC(=O)Nc3ccccc3C(C)(C)C)nn12	none
CCOC(=O)c1ccccc1NC(=O)c1nc2nccc(C)n2n1	Arrestin-AP2 inh 98 | Arr-AP2 CP1 inactive | GST GSH counter inactive
COc1ccc(-c2cc(C(F)F)n3ncc(C(=O)Nc4c(C)n(C)n(-c5ccccc5)c4=O)c3n2)cc1	none
COc1ccc(-c2cc(C(F)F)n3ncc(C(=O)Nc4cc(C)on4)c3n2)cc1	Arrestin-AP2 inh 104 (no result: Rce1 inh, UUG fidelity) | Arr-AP2 CP1 inactive | GST GSH counter inactive
COC(=O)[C@H]1[C@H](CO)[C@H]2Cn3c(cccc3=O)[C@H]2N1C(=O)C1CCC1	none (no result: DSG3 Ab inh, TbMetRS inhib, Rce1 inh, Arrestin-AP2 inh)
COc1ccc(NC(=O)Nc2ccc3c(c2)C(=O)N([C@H](C)CO)C[C@H](C)[C@H](CN(C)C(=O)Nc2ccc(C(F)(F)F)cc2)O3)cc1	none (no result: DSG3 Ab inh, TbMetRS inhib, Rce1 inh, Arrestin-AP2 inh)
CC(C)(C)NC(=O)COC(=O)c1ccccc1OCC(=O)Nc1ccc(Br)cc1	Arrestin-AP2 inh 103 (no result: UUG fidelity) | Arr-AP2 CP1 inactive | GST GSH counter inactive
Cc1ccc(-c2c(C(=O)N/N=C/c3cccs3)nnn2-c2nonc2N)cc1	none
CCOc1ccc(-c2c(C(=O)N/N=C/c3cccs3)nnn2-c2nonc2N)cc1	DSG3 Ab inh inconclusive, Rce1 inh active, Arrestin-AP2 inh 61 | Arr-AP2 CP1 inactive | GST GSH counter inactive
